# Apparent affinities of Ab-14 variants for a coronavirus HR2 peptide

Binding partner: SARS-CoV-2 spike HR2 peptide, sequence PDVDLGDISGINAS.

Each scFv is VH, a 15-residue (Gly4Ser)3 linker, VL, as in the parent Ab-14, and differs from it in the CDRs of the light chain only.
VH: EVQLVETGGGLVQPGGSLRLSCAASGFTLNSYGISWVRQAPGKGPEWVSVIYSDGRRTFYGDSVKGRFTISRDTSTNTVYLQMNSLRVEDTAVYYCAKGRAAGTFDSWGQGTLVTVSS
VL: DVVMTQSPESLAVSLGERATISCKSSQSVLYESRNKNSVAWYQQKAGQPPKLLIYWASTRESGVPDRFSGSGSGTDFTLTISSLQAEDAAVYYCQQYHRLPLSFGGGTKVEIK

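Phage display of a naive human antibody library on the peptide gave the parent. Designed CDR sequences, proposed from the first random library and measured here. Group labels follow the data file (Ctrl: baseline library sampled from a position-specific scoring matrix, with some repeated check sequences; Rand: our label for a block that the file lists under HC and that is probably the random mutants of the ten best first-round binders; GP: Gaussian process model; HC: hill climbing; Gen: genetic algorithm; Gibbs: Gibbs sampling; a sequence that several methods proposed may carry one label only). AlphaSeq pools MATa yeast showing the antibodies with MATalpha yeast showing the peptide. Pairs that bind mate more often; barcode pairs of the diploids are counted by sequencing. A regression on co-assayed BCL2-family reference pairs converts the normalised counts of each replicate to an apparent Kd. Each pool was mated in six replicate cultures.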

Substitutions are numbered in sequence along the VL above, starting at 1 (not Kabat). This list holds designs with at most six substitutions. The Kd shown is the geometric mean over detected replicates; a lower Kd is a better binder. Where no diploid with the target was found in any replicate, the entry reads "nd": below detection, most likely a poor binder, though not proof of it. As a blank, each scFv also met three strains without target: over all light chain designs, 4% of these pairings were detected, typically at 430 nM and seldom below 38 nM. For each scFv, signals with the empty controls are counted beside the result. Of ten entries with the parent sequence, four were seen in most replicates (averages 2.2 nM to 240 nM), three in one and three in none, so single entries are noisy. The authors averaged sequences with at least three values out of six and counted those with two or fewer as poor binders. A sequence measured in both rounds can read differently, since the two assays cover different ranges.

* K36E+W56A+S62F+Y97C+P101V [Ctrl] = nd (0 of 6 replicates; controls 0 of 18)
* S25W [Ctrl] = 56 nM (3 of 6 replicates; controls 4 of 18)
* S28Q+N35W+W56S+H98A [Ctrl] = 5.1 nM (6 of 6 replicates; controls 1 of 18)
* S25W+Q27S+L30D+T59R [Ctrl] = 51 nM (5 of 6 replicates; controls 0 of 18)
* S26L+Q27W+L30E+R34N+W56H+S62D [GP_HC] = 2.0 nM (6 of 6 replicates; controls 4 of 18)
* V29D+W56H+S62D [GP_HC] = 650 pM (6 of 6 replicates; controls 1 of 18)
* S26A+Q27A+S28G+Y31Q+E61M [Ctrl] = 40 nM (6 of 6 replicates; controls 1 of 18)
* Q27F+V29Y+W56E+S62Q [GP_HC] = 130 nM (6 of 6 replicates; controls 0 of 18)
* K24H+Q27P+V29D+S38N+W56N [GP_HC] = 1.3 nM (6 of 6 replicates; controls 0 of 18)
* S25L+W56N+E61L [GP_Gen] = 2.4 nM (6 of 6 replicates; controls 0 of 18)
* S25L+S26Q+L30W+W56E [GP_Gen] = 640 pM (6 of 6 replicates; controls 1 of 18)
* Y31F+W56D+E61S+Q95F+Q96C [Rand] = 950 nM (3 of 6 replicates; controls 2 of 18)
* S25F+S28W+V29H+N35T+W56N [GP_HC] = 590 pM (6 of 6 replicates; controls 0 of 18)
* S25L+Q27M+L30Q+H98A [Ctrl] = 15 nM (6 of 6 replicates; controls 0 of 18)
* S25L+S26Q+S28Q+V29T+W56S+S62E [GP_HC] = 750 pM (6 of 6 replicates; controls 0 of 18)
* S25I+N35T+W56N+S58V+S62T [GP_HC] = 770 pM (6 of 6 replicates; controls 1 of 18)
* Q27I+V29Y+W56S [GP_HC] = 8.7 nM (6 of 6 replicates; controls 1 of 18)
* E32K+S33E+W56R [Ctrl] = 470 nM (2 of 6 replicates; controls 0 of 18)
* S28G+W56K+H98L [Ctrl] = 21 nM (6 of 6 replicates; controls 0 of 18)
* S25H+Q27I+L30M+Y31G+S33D+W56D [GP_Gibbs] = 980 pM (6 of 6 replicates; controls 1 of 18)
* E32G+R60H [Ctrl] = 5.3 nM (1 of 6 replicates; controls 2 of 18)
* E32M [Ctrl] = 11 nM (1 of 6 replicates; controls 2 of 18)
* S26L+Y31D+S33E+K36D+T59H+E61L [GP_Gibbs] = 37 nM (5 of 6 replicates; controls 0 of 18)
* L30A [Ctrl] = 11 nM (6 of 6 replicates; controls 1 of 18)
* S25V+V29H+N35M+W56N+T59Q [GP_Gen] = 820 pM (6 of 6 replicates; controls 0 of 18)
* S25L+S28G+V29Y+W56N [GP_Gen] = 1.0 nM (6 of 6 replicates; controls 1 of 18)
* S25F+S33Q+N35T+W56N [Rand] = 860 pM (6 of 6 replicates; controls 3 of 18)
* S25M+L30G+Y31M+N35L+N37Q+R99M [Ctrl] = 14 nM (5 of 6 replicates; controls 0 of 18)
* S28D+W56S [Ctrl] = 3.5 nM (6 of 6 replicates; controls 2 of 18)
* L30P+W56N+T59Q [GP_Gen] = 4.7 nM (6 of 6 replicates; controls 1 of 18)
* S25I+S62L [Ctrl] = 1.9 nM (6 of 6 replicates; controls 0 of 18)
* Q27P+R34H+W56D+E61M [GP_HC] = 500 pM (6 of 6 replicates; controls 3 of 18)
* K24H+S25L+Q27W+S28V+V29W+W56N [GP_HC] = 1.4 nM (6 of 6 replicates; controls 1 of 18)
* S33D+N35V+W56G [GP_HC] = 7.5 nM (6 of 6 replicates; controls 1 of 18)
* S25Y+N35F+K36F+N37P+W56T [Ctrl] = 13 nM (6 of 6 replicates; controls 0 of 18)

The last 4 entries again:

{"changes": "Q27P+R34H+W56D+E61M", "group": "GP_HC", "Kd (apparent)": "500 pM", "seen in": "6 of 6", "empty controls": "3 of 18"}
{"changes": "K24H+S25L+Q27W+S28V+V29W+W56N", "group": "GP_HC", "Kd (apparent)": "1.4 nM", "seen in": "6 of 6", "empty controls": "1 of 18"}
{"changes": "S33D+N35V+W56G", "group": "GP_HC", "Kd (apparent)": "7.5 nM", "seen in": "6 of 6", "empty controls": "1 of 18"}
{"changes": "S25Y+N35F+K36F+N37P+W56T", "group": "Ctrl", "Kd (apparent)": "13 nM", "seen in": "6 of 6", "empty controls": "0 of 18"}

Reference: Li et al. 2023, doi:10.1038/s41467-023-39022-2. File: FLAb, binding data.